In brackets after ≈: the same amount, converted by molar mass.
Tests used:
[1] = tested on: Pseudomonas aeruginosa; experiment: Antibacterial activity against Pseudomonas aeruginosa ATCC 9027 assessed as inhibition of visible growth measured after 18 to 24 hrs by broth dilution method; type: functional; settings: time 18-24 hrs
[2] = tested on: Staphylococcus aureus; experiment: Antibacterial activity against methicillin-resistant Staphylococcus aureus NCTC 10442 assessed as inhibition of visible growth measured after 18 to 24 hrs by broth dilution method; type: functional; settings: time 18-24 hrs
[3] = tested on: Staphylococcus aureus; experiment: Antibacterial activity against Staphylococcus aureus ATCC 29213 assessed as inhibition of visible growth measured after 18 to 24 hrs by broth dilution method; type: functional; settings: time 18-24 hrs
[4] = tested on: Staphylococcus aureus; experiment: Antibacterial activity against methicillin-resistant Staphylococcus aureus N315 assessed as inhibition of visible growth measured after 18 to 24 hrs by broth dilution method; type: functional; settings: time 18-24 hrs
[5] = Haemolytic activity in rabbit red blood cells incubated for 60 mins by k multi-mode reader relative to control; type: toxicity, cell-based, Oryctolagus cuniculus, Erythrocyte
[6] = tested on: Escherichia coli; experiment: Antibacterial activity against Escherichia coli ATCC 25922 assessed as inhibition of visible growth measured after 18 to 24 hrs by broth dilution method; type: functional; settings: time 18-24 hrs

Question: For CC[C@H](C)[C@H](NC(=O)CN)C(=O)NCC(=O)N[C@@H](C)C(=O)N[C@H](C(=O)N[C@@H](CC(C)C)C(=O)N[C@@H](CCCCN)C(=O)N[C@H](C(=O)N[C@@H](CC(C)C)C(=O)N[C@H](C(=O)N[C@H](C(=O)NCC(=O)N[C@@H](CC(C)C)C(=O)N1CCC[C@H]1C(=O)N[C@@H](C)C(=O)N[C@@H](CC(C)C)C(=O)N[C@H](C(=O)N[C@@H](CO)C(=O)N[C@@H](Cc1c[nH]c2ccccc12)C(=O)N[C@H](C(=O)N[C@@H](CCCCN)C(=O)N[C@@H](CCCNC(=N)N)C(=O)N[C@@H](CCCCN)C(=O)N[C@@H](CCCNC(=N)N)C(=O)N[C@@H](CCC(N)=O)C(=O)N[C@@H](CCC(N)=O)C(N)=O)[C@@H](C)CC)[C@@H](C)CC)[C@@H](C)O)[C@@H](C)O)C(C)C)C(C)C [MELITTIN], which MIC [1] is on record?
Answer: 6.25 µg/mL (≈ 2.2 µM)

Question: What about the MIC [2] of the same compound?
Answer: 3.12 µg/mL (≈ 1.1 µM)

Question: What about the MIC [3] of the same compound?
Answer: 3.12 µg/mL (≈ 1.1 µM)

Question: What about the MIC [4] of the same compound?
Answer: 1.56 µg/mL (≈ 0.548 µM)

Question: And the HC50 at 1 h [5]?
Answer: 19.1 µg/mL

Question: And the MIC [6]?
Answer: 3.12 µg/mL (≈ 1.1 µM)

From ChEMBL document CHEMBL5236632, “Membrane-Active Nonivamide Derivatives as Effective Broad-Spectrum Antimicrobials: Rational Design, Synthesis, and Biological Evaluation” (J Med Chem, 2022)
